Assay results: PubChem BioAssay AID652067 (The Scripps Research Institute Molecular Screening Center, 2013)
This is a selection; strong and weak results do not stand in their true shares. Some structures show a salt or complex split into parts, the way the source records it. Calls of active or inactive are those of the source.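 Rule for the calls: active = activation above the mean of all tested compounds plus 3 SD (cut at about 5.5% in these data); inactive = the rest.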

Each compound was assayed on DAF-12 nuclear receptor (Haemonchus contortus) (assay: H. contortus DAF-12 nuclear receptor activators, primary screen, cell-based, luminescence, HEK293, lit1-tk-luc reporter (AID 652067;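 note: 100% = response to 3 µM Δ7-dafachronic acid high control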)). Settings: HEK293 hcDAF-12 lit1-tk-luc reporter, at 6.8 µM, active compounds read high, 0% DMSO, 100% Δ7-dafachronic acid.

Structure (SMILES) | activation
COc1ccccc1OP(C)(=O)Nc1ccc(C)cc1 (stereo not given) | inactive: -1.33%
Cc1ccc(NP(C)(=O)Oc2ccccc2)c(C)c1 (stereo not given) | inactive: -1.38%
CCOC(=O)c1ccc(NP(C)(=O)Oc2ccccc2)cc1 (stereo not given) | inactive: -2.17%
Cc1cc(C)cc(OP(C)(N)=O)c1 (stereo not given) | inactive: 0.71%
COc1ccccc1OP(C)(=O)Nc1cc(Cl)ccc1C (stereo not given) | inactive: -1.16%
COc1ccc(OP(C)(=O)Nc2cccc(F)c2)cc1 (stereo not given) | inactive: 1.43%
O=[N+]([O-])c1cc([N+](=O)[O-])c(Nc2cccnc2)c([N+](=O)[O-])c1 | inactive: -0.06%
O=[N+]([O-])c1ccc2c(c1)C=Nc1ccccc1O2 | inactive: -0.91%
CC(C)(C)c1ccc(OP(C)(=O)Nc2ccc(SC(F)(F)F)cc2)cc1 (stereo not given) | inactive: -2.47%
Cc1cccc(C)c1OP(C)(N)=O (stereo not given) | inactive: -1.55%
COc1ccccc1-c1ccccn1.O=[N+]([O-])c1cc([N+](=O)[O-])c(O)c([N+](=O)[O-])c1 | inactive: 0.54%
CCN(CC)CCCOC(=O)C(O)(c1ccccc1)c1ccccc1 | inactive: -0.33%
CCOC(=O)c1ccc(NP(C)(=O)Oc2ccc(OC)cc2)cc1 (stereo not given) | inactive: -3.26%
O=[N+]([O-])c1cc([N+](=O)[O-])c(O)c([N+](=O)[O-])c1.c1ccc(Oc2ccncc2)cc1 | inactive: 1.07%
CCOP(C)(=S)SCC(=O)NC(C)C(=O)O (stereo not given) | inactive: -1.46%
CP(=O)(Nc1ccccn1)Oc1ccc(Cl)cc1 (stereo not given) | inactive: 0.72%
Cc1cccc(C)c1OP(C)(=O)Nc1ccc(SC(F)(F)F)cc1 (stereo not given) | inactive: -2.12%
CP(=O)(Nc1ccc(SC(F)(F)F)cc1)Oc1ccc(Cl)cc1 (stereo not given) | inactive: -0.9%
CP(=O)(Oc1ccccc1)OC(c1ccccc1)C(F)(F)F (stereo not given) | inactive: 0.12%
CP(=O)(NC(=O)Nc1ccccc1)Oc1ccccc1 (stereo not given) | inactive: 1.77%
CCc1ccc(OP(C)(=O)N2CCN(c3ccc([N+](=O)[O-])cc3)CC2)cc1 (stereo not given) | inactive: -1.15%
Cc1cc(C)cc(OP(C)(=O)Nc2ccc(SC(F)(F)F)cc2)c1 (stereo not given) | inactive: 0.05%
CP(=S)(Nn1cnnc1)Oc1ccccc1 (stereo not given) | inactive: 1.94%
CP(=O)(Nc1ccccc1Br)Oc1ccccc1 (stereo not given) | inactive: 1.12%
COc1ccccc1OP(C)(=O)Nc1ccccc1 (stereo not given) | inactive: -0.15%
COc1ccccc1OP(C)(=O)Nc1c(C)cccc1C (stereo not given) | inactive: -0.28%
CN1CCCCC1COC(=O)C1(O)c2ccccc2CCc2ccccc21 (stereo not given) | inactive: -1.24%
COc1ccc(-c2ccccn2)cc1.O=[N+]([O-])c1cc([N+](=O)[O-])c(O)c([N+](=O)[O-])c1 | inactive: 3.3%

Structure (SMILES) | activation
CCCOc1ccc(NP(C)(=O)Oc2ccc(Cl)cc2)cc1 (stereo not given) | inactive: -2.63%
CP(=O)(Nc1ccc(SC(F)(F)F)cc1)Oc1ccccc1 (stereo not given) | inactive: -1.35%
O=[N+]([O-])c1cc([N+](=O)[O-])c(Nc2nnnn2CCO)c([N+](=O)[O-])c1 | inactive: -0.88%
CCOC(=O)C(CC)C1=NC(C)(C)Cc2ccccc21.O=[N+]([O-])c1cc([N+](=O)[O-])c(O)c([N+](=O)[O-])c1 (stereo not given) | inactive: 0.29%
O=[N+]([O-])c1cc([N+](=O)[O-])c(-c2cnn(-c3ccccc3)c2)c([N+](=O)[O-])c1 | inactive: -2.37%
Cc1nc2ccc3ccccc3c2s1.O=[N+]([O-])c1cc([N+](=O)[O-])c(O)c([N+](=O)[O-])c1 | inactive: -0.34%
O=[N+]([O-])c1cc([N+](=O)[O-])c(-n2nnc3ccccc32)c([N+](=O)[O-])c1 | inactive: -0.63%
CN(Cc1cccnc1)C(=O)COc1ccc(Cl)c(Cl)c1.O=[N+]([O-])c1cc([N+](=O)[O-])c(O)c([N+](=O)[O-])c1 | inactive: -2.01%
Cc1ccc(C)c(NP(C)(=O)Oc2ccccc2)c1 (stereo not given) | inactive: -0.79%
Cc1cc(C)cc(OP(C)(=O)Nc2ccccn2)c1 (stereo not given) | inactive: 1.03%
CP(=O)(Nc1cccc(Br)c1)Oc1ccccc1 (stereo not given) | inactive: -0.08%
COc1ccccc1OP(C)(=O)Nc1cccc(Br)c1 (stereo not given) | inactive: -1.47%
CCOC(=O)c1ccc(NP(C)(=O)Oc2cc(C)cc(C)c2)cc1 (stereo not given) | inactive: 1.53%
Cc1cc(C)cc(OP(C)(=O)Nc2ccc(C)cc2C)c1 (stereo not given) | inactive: -0.69%
CC1=NCCc2c1[nH]c1ccccc21.O=[N+]([O-])c1cc([N+](=O)[O-])c(O)c([N+](=O)[O-])c1 | inactive: 0.75%
O=C(O)c1cccc(Nc2c([N+](=O)[O-])cc([N+](=O)[O-])cc2[N+](=O)[O-])c1 | inactive: -1.14%
Cc1c([N+](=O)[O-])cc([N+](=O)[O-])c(Br)c1[N+](=O)[O-] | inactive: -0.53%
CCN(CC)CCCOC(=O)C(O)(c1ccccc1)C1CCCCC1 (stereo not given) | inactive: -1.69%
CP(=O)(Nc1ccccc1)Oc1ccc(F)cc1 (stereo not given) | inactive: -1.31%
CCCCCOc1ccc(NP(C)(=O)Oc2ccc(Cl)cc2Cl)cc1 (stereo not given) | inactive: -0.7%
O=[N+]([O-])c1cc([N+](=O)[O-])c(OC2CCCCC2O)c([N+](=O)[O-])c1 (stereo not given) | inactive: -0.53%
CCN(CC)CCCNc1ccccc1[N+](=O)[O-].O=[N+]([O-])c1cc([N+](=O)[O-])c(O)c([N+](=O)[O-])c1 | inactive: 0.3%
CCOC(=O)c1ccc(NP(C)(=O)Oc2ccc(F)cc2)cc1 (stereo not given) | inactive: 0.95%
COc1ccc(OP(C)(=O)Nc2ccc(SC(F)(F)F)cc2)cc1 (stereo not given) | inactive: -1.34%
O=C(OC1CN2CCC1CC2)c1ccc([N+](=O)[O-])cc1 (stereo not given) | inactive: 1.87%
O=C(OCCN1CCN(CCOCc2ccccc2)CC1)C(O)(c1ccccc1)c1ccccc1 | inactive: -1.85%
COc1ccc2c(c1O)-c1c(O)c(OC)cc3c1[C@H](C2)[N+](C)(C)CC3.O=[N+]([O-])c1cc([N+](=O)[O-])c([O-])c([N+](=O)[O-])c1[O-] | inactive: 0.59%
